These results are taken from article PMC8567046, “SMYD2‐mediated TRAF2 methylation promotes the NF‐κB signaling pathways in inflammatory diseases” (Clinical and Translational Medicine, 2021).

The experiment addresses T1, His-TRAF2 (immobilised on CM5) (UniProt Q12933 1-501).
T1 construct: TRAF2; Isolated protein coupled to the sensor surface
T1 sequence (looked up): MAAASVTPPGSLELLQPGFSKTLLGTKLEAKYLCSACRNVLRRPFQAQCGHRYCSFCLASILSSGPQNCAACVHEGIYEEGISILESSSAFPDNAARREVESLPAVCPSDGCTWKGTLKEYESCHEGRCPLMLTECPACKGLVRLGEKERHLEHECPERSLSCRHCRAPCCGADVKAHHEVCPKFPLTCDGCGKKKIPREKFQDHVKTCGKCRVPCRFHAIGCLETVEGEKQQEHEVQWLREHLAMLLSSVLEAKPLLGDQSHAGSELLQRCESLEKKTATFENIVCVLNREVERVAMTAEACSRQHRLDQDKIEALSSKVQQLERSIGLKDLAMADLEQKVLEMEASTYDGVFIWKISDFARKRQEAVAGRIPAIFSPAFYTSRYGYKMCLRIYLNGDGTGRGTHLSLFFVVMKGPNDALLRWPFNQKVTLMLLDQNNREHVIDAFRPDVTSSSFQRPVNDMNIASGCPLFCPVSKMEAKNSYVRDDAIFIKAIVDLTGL
Nature of the experiment: SPR; Biacore; His-TRAF2 immobilised on CM5; His-SMYD2 in HBS buffer at 0.039 μM - 1.25 μM injected; association 45 s, dissociation 100 s. Particulars: both partners purified. Background: SPR reads the build-up and loss of mass on a sensor chip optically.

B1: His-SMYD2 (enzyme, UniProt Q9NRG4 1-433, looked up)
chain: MRAEGLGGLERFCSPGKGRGLRALQPFQVGDLLFSCPAYAYVLTVNERGNHCEYCFTRKEGLSKCGRCKQAFYCNVECQKEDWPMHKLECSPMVVFGENWNPSETVRLTARILAKQKIHPERTPSEKLLAVKEFESHLDKLDNEKKDLIQSDIAALHHFYSKHLGFPDNDSLVVLFAQVNCNGFTIEDEELSHLGSAIFPDVALMNHSCCPNVIVTYKGTLAEVRAVQEIKPGEEVFTSYIDLLYPTEDRNDRLRDSYFFTCECQECTTKDKDKAKVEIRKLSDPPKAEAIRDMVRYARNVIEEFRRAKHYKSPSELLEICELSQEKMSSVFEDSNVYMLHMMYQAMGVCLYMQDWEGALQYGQKIIKPYSKHYPLYSLNVASMWLKLGRLYMGLEHKAAGEKALKKAIAIMEVAHGKDHPYISEIKQEIESH
notes: SMYD2; also called highly purified His-SMYD2; source: highly purified
In general, Kd refers to the constant that tells how readily two partners part at equilibrium. A higher Kd goes with lower affinity. A word on the koff: it is a measure of how fast the partners let go of each other. A low value points to a long-lived complex. One may read the kon as the rate constant with which the complex forms. B1 showed a dissociation constant Kd of 29.4 nM, a dissociation rate constant (koff) of 0.00103 s⁻¹ and a kon of 35100 M⁻¹ s⁻¹.
